Test results published in ChEMBL document CHEMBL1142938 (J Med Chem, 2007).

Amino acid sequences for entries named in this document (tags omitted).
UniProt P30542, whole entry: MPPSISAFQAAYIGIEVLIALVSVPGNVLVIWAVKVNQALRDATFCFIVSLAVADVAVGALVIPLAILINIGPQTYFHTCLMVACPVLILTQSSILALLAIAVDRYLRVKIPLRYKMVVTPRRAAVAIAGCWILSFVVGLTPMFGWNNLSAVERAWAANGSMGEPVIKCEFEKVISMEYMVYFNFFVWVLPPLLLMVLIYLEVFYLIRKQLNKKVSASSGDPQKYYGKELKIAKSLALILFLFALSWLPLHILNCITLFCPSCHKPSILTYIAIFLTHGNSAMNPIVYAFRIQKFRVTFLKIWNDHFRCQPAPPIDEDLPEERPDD

Target: Adenosine receptor A1 (Homo sapiens, UniProt P30542)
Assay: Displacement of [3H]CCPA from human recombinant adenosine A1 receptor expressed in CHO cells
Format: cell-based

Ki: 12 µM
Compound: CNC(=O)[C@H]1O[C@@H](n2cnc3c(NOC)nc(C#Cc4ccc(C)cc4)nc32)[C@H](O)[C@@H]1O
